One assay deals with 85 serine hydrolases. The settings on record: 33.3 μM to 10 nM; semiquantitative.
Another assay concerns prostate xenograft. The settings on record: 200 mg/kg in drinking water ad libitum; cited from earlier work.
The subject of the next assay is Sprague-Dawley rats. The assay can be described thus: Rat diuresis and kaliuresis model. The class given is in vivo. The conditions noted are these: 1.5 mg/kg iv after 25 mg/kg acetazolamide; urine over 6 h.

Structures are written as SMILES.

Data on 2 compounds can be found in article PMC6290913 (2018).

As to `N=C(N)NC(=O)c1nc(Cl)c(N)nc1N` [Compound 4, amiloride, reference compound], the “serine hydrolases inhibited in EnPlex screen” value in the assay with 85 serine hydrolases is “slight activity against only a few serine hydrolases (C1r, C1s, DDHD1, factor VIIa, and LACTB)”. For the same compound, in the assay with prostate xenograft, the “effect in prostate xenograft mouse model” value is listed as “complete remission”.
Regarding `N=C(N)NC(=O)c1nc(-c2cc3ccccc3o2)c(N2CCCCCC2)nc1N` [Compound 18, 3-Amino-5-(azepan-1-yl)-6-(benzofuran-2-yl)-N-carbamimidoylpyrazine-2-carboxamide], the “Na+/K+ excretion ratio” value with Sprague-Dawley rats is 2.44−2.68.
